In the experiment the target is T1, MCM7 with 6-His tag in combination with a triple FLAG tag (human, UniProt P33993 1-719).
T1 construct: MCM7; The methods describe one MCM7 baculovirus with both tags; also called FLAG-MCM7; FLAG-tagged MCM7; source: High Five insect cells, baculovirus, in lysate; not shown: His6, N-terminal, kept; triple FLAG, N-terminal, kept
Put plainly: co-sedimentation; MCM-BP-MCM pairs co-expressed in insect cells and isolated on affinity resin; 150-200 µg on a 12 ml 15-35% glycerol gradient, 20 mM Tris-HCl pH 7.5, 100 mM NaCl, 0.1 mM EDTA, 2 mM DTT; 34,000 rpm SW41, 16 hours, 4°C; silver staining. The note with it: both partners purified.

Amino acid sequences for entries named in this document (tags omitted).
UniProt P33993, whole entry: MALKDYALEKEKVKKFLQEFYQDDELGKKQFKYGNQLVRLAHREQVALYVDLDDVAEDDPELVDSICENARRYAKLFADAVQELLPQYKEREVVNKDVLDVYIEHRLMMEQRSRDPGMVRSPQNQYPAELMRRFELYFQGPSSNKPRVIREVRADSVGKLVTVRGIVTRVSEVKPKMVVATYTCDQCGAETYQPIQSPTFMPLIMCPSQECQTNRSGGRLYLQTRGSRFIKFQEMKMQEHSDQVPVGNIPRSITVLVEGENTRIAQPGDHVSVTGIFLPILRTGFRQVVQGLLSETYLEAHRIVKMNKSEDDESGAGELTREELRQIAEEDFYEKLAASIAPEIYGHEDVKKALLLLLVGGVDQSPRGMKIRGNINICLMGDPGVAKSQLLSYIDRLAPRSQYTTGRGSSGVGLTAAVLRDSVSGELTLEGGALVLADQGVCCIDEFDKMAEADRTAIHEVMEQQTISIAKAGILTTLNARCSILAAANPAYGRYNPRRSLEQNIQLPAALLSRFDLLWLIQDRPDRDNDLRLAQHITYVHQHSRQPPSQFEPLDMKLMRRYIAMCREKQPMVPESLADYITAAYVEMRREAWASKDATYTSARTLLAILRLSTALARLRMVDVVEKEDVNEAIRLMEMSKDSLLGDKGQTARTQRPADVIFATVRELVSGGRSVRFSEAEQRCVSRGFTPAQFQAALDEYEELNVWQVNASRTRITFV

The record followed here is publication PMC3335088 (PLoS ONE, 2012).

B1: MCM-BP with no tags (natural protein, human, UniProt Q9BTE3 1-642, looked up)
chain: MPCGEDWLSHPLGIVQGFFAQNGVNPDWEKKVIEYFKEKLKENNAPKWVPSLNEVPLHYLKPNSFVKFRCMIQDMFDPEFYMGVYETVNQNTKAHVLHFGKYRDVAECGPQQELDLNSPRNTTLERQTFYCVPVPGESTWVKEAYVNANQARVSPSTSYTPSRHKRSYEDDDDMDLQPNKQKDQHAGARQAGSVGGLQWCGEPKRLETEASTGQQLNSLNLSSPFDLNFPLPGEKGPACLVKVYEDWDCFKVNDILELYGILSVDPVLSILNNDERDASALLDPMECTDTAEEQRVHSPPASLVPRIHVILAQKLQHINPLLPACLNKEESKTCKFVSSFMSELSPVRAELLGFLTHALLGDSLAAEYLILHLISTVYTRRDVLPLGKFTVNLSGCPRNSTFTEHLYRIIQHLVPASFRLQMTIENMNHLKFIPHKDYTANRLVSGLLQLPSNTSLVIDETLLEQGQLDTPGVHNVTALSNLITWQKVDYDFSYHQMEFPCNINVFITSEGRSLLPADCQIHLQPQLIPPNMEEYMNSLLSAVLPSVLNKFRIYLTLLRFLEYSISDEITKAVEDDFVEMRKNDPQSITADDLHQLLVVARCLSLSAGQTTLSRERWLRAKQLESLRRTRLQQQKCVNGNEL
notes: MCM-BP, human; made from pfastBacHT.MCM-BP by excising the 6-His tag; also called untagged MCM-BP; nontagged MCM-BP; source: High Five insect cells, baculovirus, co-expressed, in lysate
B1: the binding result was “binds”.
